Earlier results on 1 sequence are cited in US20090326196A1 (Trustees of Tufts College, priority 2006, published 2009).

The subject of the data set is dipeptidyl peptidase IV (DPP IV, EC 3.4.14.5). The following applies: cited from earlier work.

For the sequence HAEGTFTSDVSSYLEGQAAKEFIAWLVKGR, the cleaved bond entry is “Ala8-Glu9”.
